# According to PMC6709783, “Structural Basis for Allosteric Ligand Recognition in the Human CC Chemokine Receptor 7” (Cell, 2019):
# Biological target: T1, human CCR7 (Homo sapiens, UniProt P32248, L145W)
# T1 construct: enhanced green fluorescent protein (eGFP) (C); decahistidine-tag (His10) (C); made in house; host or cells: Sf9 insect cells (baculovirus)
# T1 sequence (P32248 25-348 L145W): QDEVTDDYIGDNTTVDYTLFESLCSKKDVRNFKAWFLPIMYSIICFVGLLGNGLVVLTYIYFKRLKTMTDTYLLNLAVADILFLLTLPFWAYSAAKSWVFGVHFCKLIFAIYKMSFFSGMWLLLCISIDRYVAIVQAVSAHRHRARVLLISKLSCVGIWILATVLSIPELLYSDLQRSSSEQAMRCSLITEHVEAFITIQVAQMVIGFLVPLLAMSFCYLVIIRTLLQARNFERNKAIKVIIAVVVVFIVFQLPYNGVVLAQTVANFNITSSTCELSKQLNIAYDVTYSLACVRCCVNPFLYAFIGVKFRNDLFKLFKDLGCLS
# Test: Thermofluor stability assay (thermal shift, CPM dye) with purified CCR7-L145W
# Format: binding
# Settings: known chemokine receptor ligands tested for selectivity of the pocket, Figure 4B
# Experimental: The plate was sealed and incubated for 30 min on ice. A 1:100 (v/v) working solution of the CPM (N-[4-(7-diethylamino-4-methyl-3-coumarinyl)phenyl]maleimide) dye stock (3 mg/mL in DMSO) was prepared and 5.14 μL of this solution were added to each well and mixed thoroughly. Out of each well, 3 × 20 μL were distributed into 0.1 mL Rotor-Gene Q tubes (QIAGEN). […] The gain set was determined at the beginning of the run. The melting temperature (Tm) was calculated from the point of inflection.
# All liquid-handling steps were performed using a Bravo automated liquid handling platform and a 96LT head.
# Melting temperatures (Tm) in the thermofluor stability assays were calculated and analyzed by automated scripts based on a fit to the Boltzmann equation. Details on significance levels and number of experiments are given in the corresponding figure legends.
row,SMILES,thermo-stabilizing effect on CCR7 (in words)
1,CC(=O)C1=C(O)C(=O)N(c2ccc(Cl)cc2F)[C@@H]1C1CCCCC1 [CCR2-RA-[R]],did not have a thermo-stabilizing effect on CCR7
2,Cc1c(F)cccc1NC(=O)Nc1ccc(Cl)c(S(=O)(=O)[C@H]2CCCNC2)c1O [Danirixin],Neither did the CXCR2 antagonist Danirixin nor the CXCR1 and CXCR2 antagonist Reparixin stabilize CCR7
3,CC(C)(C)c1ccc(S(=O)(=O)Nc2ccc(Cl)cc2C(=O)c2cc[n+]([O-])cc2)cc1 [Vercirnon],did not have a thermo-stabilizing effect on CCR7
